PMC7310027, “PET imaging of soluble epoxide hydrolase in non-human primate brain with [^18F]FNDP” (EJNMMI Research, 2020)

Tested on: soluble epoxide hydrolase (sEH)
Test: Baboon [^18F]FNDP PET, dose-escalation blocking with AR-9281 (Lassen plot, occupancy)
Format: in vivo, baboon (Papio anubis)
Details: all brain regions, Baboon3
Experimental: PET images were acquired using a CPS/CTI high-resolution research tomograph (HRRT), which has an axial resolution (FWHM) of 2.4 mm and in-plane resolution of 2.4–2.8 mm. […] These blocking studies were performed 27 to 43 days apart from each other to ensure full animal recovery. The animals had no food for 12 h prior to each PET study. Anesthesia was induced with intramuscular ketamine (7.5–10 mg/kg) and maintained with a continuous intravenous infusion of propofol at 0.3–0.4 mg/kg/min throughout the PET experiment. One venous catheter was inserted for the radioligand injection, and one arterial catheter was inserted to obtain arterial blood samples. Baboons were intubated to facilitate respiration, and circulatory volume was maintained by constant infusion of isotonic saline. Physiological vital signs including heart rate, blood pressure, electrocardiogram, and oxygen saturation were monitored continuously throughout the study.
The animals were positioned in the PET scanner with the head immobilized using a thermoplastic mask. […] The 90-min dynamic PET acquisition was then started in three-dimensional list mode simultaneously with an intravenous bolus injection of [^18F]FNDP. […]
Next, kinetic modeling was performed based on the TACs and the metabolite-corrected arterial plasma input functions. For brain uptake, the primary outcome measure was the regional brain distribution volume (VT) of [^18F]FNDP, defined as concentration of the radiotracer in regional tissue relative to that in blood at equilibrium. We evaluated which compartmental models (e.g., two-tissue-three-compartment (2TCM) or one-tissue-two-compartment (1TCM)) best described the [^18F]FNDP PET data, using statistical model selection criteria, such as the Akaike information criterion. For comparison, the Logan graphical method (t* = 30 min) was also used to compute regional VT, as well as generating voxel-wise parametric images of VT [31].
For blocking studies, occupancy of sEH by FNDP was calculated using regional VT values as Eq 1 Occupancy=ΔVT/VTBaseline−VND, […]

CC(=O)N1CCC(NC(=O)NC23CC4CC(CC(C4)C2)C3)CC1 [AR-9281, 1-(1-Acetyl-piperidin-4-yl)-3-adamantan-1-yl-urea, reference compound]
estimated occupancy of sEH (AR-9281 0.02 mg/kg s.c. 1 h before tracer): 33.8 ± 3.8% | estimated occupancy of sEH (AR-9281 0.1 mg/kg s.c. 1 h before tracer): 88.6 ± 1.3% | estimated occupancy of sEH (AR-9281 1 mg/kg s.c. 1 h before tracer): 99.2 ± 1.1%
